Measured values published in PubChem BioAssay AID540317 (National Center for Advancing Translational Sciences (NCATS), 2011).
“And” between values parts separate entries of the source, which are not always exact repeats. Identical values can stand only once. The list shows a part of the results, in another mix than the full data. Some of these compounds have results that are not shown, active ones among them. Records with an inconclusive call do not appear. The source made the active and inactive calls. The call rests on the fitted dose curve; in most records, active means well fitted inhibition curve with a large enough effect; inconclusive means small, poorly fitted or top-dose-only effect; inactive means no such curve, though single readings can be large or run the other way.
Further: nearly all actives have a fitted effect of over 70% in size.

Chains of the proteins cited; added tags and fusions are not shown.
UniProt P83916, whole entry: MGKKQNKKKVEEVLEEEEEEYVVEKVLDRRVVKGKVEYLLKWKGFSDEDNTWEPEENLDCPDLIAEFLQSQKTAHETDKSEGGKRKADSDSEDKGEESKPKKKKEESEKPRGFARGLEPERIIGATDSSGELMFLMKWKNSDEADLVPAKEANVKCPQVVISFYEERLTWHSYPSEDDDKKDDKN

What follows are compounds tested against Chromobox protein homolog 1 (Homo sapiens) (UniProt P83916) (assay: HTS for Inhibitors of HP1-beta Chromodomain Interactions with Methylated Histone Tails). Conditions: AlphaScreen HP1-beta / biotin-H3K9me3 peptide binding; at 114 µM (top of the series).
For CN(C)C1(CNC(=O)c2ccc(Br)cc2)CCCCC1, the activity change, negative = inhibition was inactive: -0.237%. With COc1cc(C(=O)NCC2(N(C)C)CCCCC2)c([N+](=O)[O-])cc1OC the activity change, negative = inhibition was inactive: 16.2%. For COc1ccc(Cl)cc1C(=O)NCC1(N(C)C)CCCCC1, the activity change, negative = inhibition was inactive: 19.1%. In the case of COc1cccc(C(=O)NCC2(N3CCCCC3)CCCCC2)c1, the activity change, negative = inhibition is reported as inactive: 9.76%. In the case of COc1ccc(C(=O)NCC2(N(C)C)CCCCC2)cc1Cl, the activity change, negative = inhibition is reported as inactive: 35.2%. In the case of O=C(NCC1(N2CCCCC2)CCCCC1)c1cccc(Cl)c1, the activity change, negative = inhibition is reported as inactive: 1.86%. COc1cccc(C(=O)NCC2(N3CCOCC3)CCCCC2)c1 was tested, and the activity change, negative = inhibition was inactive: 41.3%. In the case of O=C(OC1CN2CCC1CC2)C(CO)(c1ccccc1)c1ccccc1 (centres undefined), the activity change, negative = inhibition is reported as inactive: 11.6%. For CC(C)COc1ccc(C(=O)NCC2(N(C)C)CCCCC2)cc1, the activity change, negative = inhibition was inactive: 34.7%. With COc1ccc(Br)c(C(=O)NCC2(N3CCCCC3)CCCCC2)c1 the activity change, negative = inhibition was inactive: 21%. For COc1cc(C(=O)NCC2(N(C)C)CCCCC2)cc(OC)c1OC, the activity change, negative = inhibition was inactive: 53.1%. For Cc1cccc(C(=O)NCC2(N(C)C)CCCCC2)c1, the activity change, negative = inhibition was inactive: 30.9%. O=C(OCCN1CCCC1)C(O)(c1ccccc1)c1ccccc1 was tested, and the activity change, negative = inhibition was inactive: 20.1%. For CC(C)Oc1ccc(C(=O)NCC2(N(C)C)CCCCC2)cc1, the activity change, negative = inhibition was inactive: 7.15% and inactive: 10.9%. In the case of CN(C)c1cccc(C(=O)NCC2(N(C)C)CCCCC2)c1, the activity change, negative = inhibition is reported as inactive: 4.63%. With O=C(NCC1(N2CCCCC2)CCCCC1)c1cc([N+](=O)[O-])ccc1Cl the activity change, negative = inhibition was inactive: 12.2%. For CN1[C@@H]2CC[C@H]1CC(OC(=O)C(O)(c1ccccc1)c1ccccc1)C2 (some centres undefined), the activity change, negative = inhibition was inactive: 34.1%. COc1cc(SC)ccc1C(=O)NCC1(N(C)C)CCCCC1 was tested, and the activity change, negative = inhibition was inactive: 20.4%. With CN(C)C1(CNC(=O)c2cccc(Cl)c2)CCCCC1 the activity change, negative = inhibition was inactive: 59.5%. For CCN(CC)CC(C)C(C)OC(=O)C(O)(c1ccccc1)c1ccccc1 (centres undefined), the activity change, negative = inhibition was inactive: 12.8%. In the case of CC(C)N1C(=O)CC2(CCN(CCOC(=O)C(O)(c3ccccc3)c3ccccc3)CC2)C1=O, the activity change, negative = inhibition is reported as inactive: 32.4%. For Cc1ccc(C(=O)NCC2(N3CCCCC3)CCCCC2)cc1, the activity change, negative = inhibition was inactive: 9.76%. With CN(C)C1(CNC(=O)c2ccccc2F)CCCCC1 the activity change, negative = inhibition was inactive: 45.6%. For CN(C)c1ccc(C(=O)NCC2(N(C)C)CCCCC2)cc1, the activity change, negative = inhibition was inactive: 1.66%. For Cc1ccccc1C(=O)NCC1(N2CCCCC2)CCCCC1, the activity change, negative = inhibition was inactive: 27.2%. In the case of CN(C)C1(CNC(=O)c2ccccc2[N+](=O)[O-])CCCCC1, the activity change, negative = inhibition is reported as inactive: 50.8%. With CCCCOc1ccccc1C(=O)NCC1(N(C)C)CCCCC1 the activity change, negative = inhibition was inactive: 30.2%. For O=C(NCC1(N2CCCCC2)CCCCC1)c1cc(F)c(F)cc1Cl, the activity change, negative = inhibition was inactive: 10.2%. With C=CCN1CCN(CCOC(=O)C(O)(c2ccccc2)c2ccccc2)CC1 the activity change, negative = inhibition was inactive: 32.2%. For CCOc1cccc(C(=O)NCC2(N(C)C)CCCCC2)c1, the activity change, negative = inhibition was inactive: 37.9%. COc1ccc(C(=O)NCC2(N(C)C)CCCCC2)cc1 was tested, and the activity change, negative = inhibition was inactive: 17.8%. O=C(NCC1(N2CCCCC2)CCCCC1)c1cccc(Br)c1 was tested, and the activity change, negative = inhibition was inactive: -25.1%. For CCN1CCCC(OC(=O)C2(O)c3ccccc3C=Cc3ccccc32)C1 (centres undefined), the activity change, negative = inhibition was inactive: 5.99%. With Cc1cc(C(=O)NCC2(N3CCCCC3)CCCCC2)ccc1[N+](=O)[O-] the activity change, negative = inhibition was inactive: -4.73%.
